# According to PubChem BioAssay AID2283317 (EPA ToxCast):
# This is a selection; strong and weak results do not stand in their true shares. Records with an inconclusive call do not appear. Activity calls are given as the source filed them. How the source made its calls: active means hit-call score of the fitted dose curve at least 0.9, where 1 is the maximum; inconclusive means response in the unintended direction; inactive means score below 0.9.
# Tested on: NCBI gene 257648
# Assay: NVS_IC_rCaChN: NovaScreen (NVS) Ion Channel Assay for human Calcium Channel, Type N (CaChN)
smiles,measurement,value
O=[N+]([O-])c1cccc([N+](=O)[O-])c1,outcome,inactive
